Water solubility values, as collected for the OPERA models

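These are experimental values that the OPERA curators gathered from public databases to train and test their QSAR models. A listed value is a point estimate from one report or more. Conditions of the individual experiments are not part of the data. Where a salt, mixture or single isomer is drawn, the source does not say that exactly this form was tested. Some upstream entries may be estimates or bounds without being marked so.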

Water solubility is log10 of mol/L, nominally at 25 °C; higher is more soluble.

COc1ccc([C@@H]2CC(=O)c3c(O)cc(O[C@@H]4O[C@H](CO[C@@H]5O[C@@H](C)[C@H](O)[C@@H](O)[C@H]5O)[C@@H](O)[C@H](O)[C@H]4O)cc3O2)cc1O [Hesperidin] has log S -4.935 (log10 mol/L). Listed for O=c1c(Br)cc(Br)cc(Br)c1O: log S -3.59 (log10 mol/L). The entry for NS(=O)(=O)c1ccccc1 [Benzenesulfonamide] lists log S -1.56 (log10 mol/L). For Nc1ccc(S(=O)(=O)Nc2cnccn2)cc1 [Sulfapyrazine] the data give log S -3.7 (log10 mol/L). For CC(=O)Oc1ccccc1[N+](=O)[O-] [Acetic acid, 2-nitrophenyl ester] the data give log S -2.186 (log10 mol/L). C=CCN1CCCC1CNC(=O)c1cc2n[nH]nc2cc1OC (stereo not drawn) [Alizapride] has log S -2.804 (log10 mol/L). O=C(O)c1ccco1 [2-Furancarboxylic acid] has log S -0.48 (log10 mol/L). O=C(O)c1ccoc1 [3-Furoic acid] has log S -0.243 (log10 mol/L).

Listed for Nc1cccc2cccc(S(=O)(=O)O)c12 [1-Naphthalenesulfonic acid, 8-amino-]: log S -3.048 (log10 mol/L). For Cc1cccc([NH+]([O-])S(=O)(=O)c2ccc(N)cc2)n1 (stereo not drawn) [N1-(6-Methyl-2-pyridyl)sulfanilamide N-oxide] the data give log S -5.747 (log10 mol/L). Cc1cnc(N)[nH]c1=O [4(1H)-Pyrimidinone, 2-amino-5-methyl- (8CI)(9CI)] has log S -1.489 (log10 mol/L). The entry for OCc1nc2ncncc2[nH]1 [7h-purin-8-ylmethanol] lists log S -1.518 (log10 mol/L). For CC(=O)c1nc2c(=O)n(C)c(=O)n(C)c2nc1C [6-Acetyl-1,3,7-trimethylpteridine-2,4(1H,3H)-dione] the data give log S -2.073 (log10 mol/L). For O=C(CCc1ccc(O)cc1)c1c(O)cc(O)cc1O [3-(4-Hydroxyphenyl)-1-(2,4,6-trihydroxyphenyl)propan-1-one] the data give log S -3.348 (log10 mol/L). CC1=CCS(=O)(=O)C1 [Thiophene, 2,5-dihydro-3-methyl-, 1,1-dioxide] is reported with log S -3.23 (log10 mol/L). CC(=O)OCCC(C)OC(C)=O (stereo not drawn) [1,3-Butanediol diacetate] has log S -0.542 (log10 mol/L).

N#Cc1ccc2c(c1)N(CCCN1CCC(O)CC1)c1ccccc1S2 [Periciazine] has log S -3.98 (log10 mol/L). The entry for CCCCCCCNC(=O)[C@H](O)[C@@H](O)[C@H](O)[C@H](O)CO (stereo in doubt) [N-Heptyl D-gluconamide] lists log S -1.923 (log10 mol/L). Listed for NC(=O)C(=O)N/N=C/C=C/c1ccc([N+](=O)[O-])o1: log S -4.8 (log10 mol/L). Listed for Nc1ccc(Cl)cc1C(F)(F)F [4-Chloro-2-(trifluoromethyl)aniline]: log S -4.27 (log10 mol/L). COc1ccc2cc(CCC(C)=O)ccc2c1 [Nabumetone] has log S -5.073 (log10 mol/L). CN1CCC(CN2c3ccccc3Sc3ccccc32)C1 (stereo not drawn) [Methdilazine] is reported with log S -4.305 (log10 mol/L). The entry for CC1=C(C(=O)Nc2ccccc2)CCCO1 [3,4-Dihydro-6-methyl-N-phenyl-2H-pyran-5-carboxamide] lists log S -2.56 (log10 mol/L). O=C(O)c1cc(=O)[nH]c2ccccc12 [Cinchoninic acid, 2-hydroxy-] is reported with log S -2.839 (log10 mol/L).

The entry for C=CCOP(=O)(OCC=C)c1ccccc1 [Diprop-2-en-1-yl phenylphosphonate] lists log S -2.9 (log10 mol/L). O=C(O)COc1cccc(OCC(=O)O)c1OCC(=O)O [2,2',2''-[Benzene-1,2,3-triyltris(oxy)]triacetic acid] has log S -1.363 (log10 mol/L). CNS(=O)(=O)c1cc(OC)c(N=Nc2c(O)c(C(=O)Nc3ccc4[nH]c(=O)[nH]c4c3)cc3ccccc23)cc1OC [C.I. Pigment Violet 32] has log S -7.892 (log10 mol/L). CCN(Cc1cccc(S(=O)(=O)[O-])c1)c1ccc(C(=C2C=CC(=[N+](CC)Cc3cccc(S(=O)(=O)[O-])c3)C=C2)c2ccc(O)cc2S(=O)(=O)[O-])cc1.[Na+].[Na+] [FD&C Green No. 3] has log S -0.607 (log10 mol/L). CCC(C)(C)OC(=N)O [2-Butanol, 2-methyl-, carbamate] is reported with log S -0.8 (log10 mol/L). For CC(=O)Oc1ccc(Br)cc1 [Phenol, 4-bromo-, 1-acetate] the data give log S -2.417 (log10 mol/L). For c1ccc(C2CCCCC2)cc1 [Cyclohexylbenzene] the data give log S -4.47 (log10 mol/L). The entry for CC1(C)S[C@@H]2[C@H](NC(=O)[C@H](N=[N+]=[N-])c3ccccc3)C(=O)N2[C@H]1C(=O)O [Azidocillin] lists log S -2.788 (log10 mol/L).

CCNc1nc(=O)nc(NC(C)(C)C)[nH]1 is reported with log S -4.47 (log10 mol/L). For Brc1cc2ccccc2cc1Br [Naphthalene, 2,3-dibromo-] the data give log S -6.32 (log10 mol/L). The entry for COC(=O)C(C)OC(C)=O (stereo not drawn) [methyl 2-acetoxypropanoate] lists log S -0.261 (log10 mol/L). O=C1c2c(O)ccc(O)c2C(=O)c2c(NCCO)ccc(NCCO)c21 [1,4-Dihydroxy-5,8-bis((2-hydroxyethyl)amino)anthraquinone] has log S -3.942 (log10 mol/L). Listed for CCCCCOC(=O)Nc1ccccc1 [N-Pentyl N-phenylcarbamate]: log S -3.959 (log10 mol/L). For Nc1cc(Cl)nc(C(=O)O)c1Cl [Aminopyralid] the data give log S -1.921 (log10 mol/L). For NC(=O)c1cc(O)ccc1O [Gentisamide] the data give log S -1.683 (log10 mol/L). The entry for Cc1ccc2cccc(O)c2n1 [8-Quinolinol, 2-methyl-] lists log S -1.731 (log10 mol/L).

CCCCC(CC)COC(=O)CC(CC(=O)OCC(CC)CCCC)(OC(C)=O)C(=O)OCC(CC)CCCC (stereo not drawn) [Acetyl tris(2-ethylhexyl) citrate] has log S -7.058 (log10 mol/L). Cn1c(=O)c2c(ncn2CC=O)n(C)c1=O is reported with log S -1.268 (log10 mol/L). Listed for O=c1cc(O)c2ccccc2[nH]1 [2(1H)-Quinolinone, 4-hydroxy-]: log S -3.792 (log10 mol/L).

Source: data files of OPERA 2.9 (Mansouri et al.), github.com/kmansouri/OPERA.